Apparent affinities of Ab-14 variants for a coronavirus HR2 peptide

Target: peptide PDVDLGDISGINAS, taken from heptad repeat 2 (HR2) of SARS-CoV-2 spike.

Parent scFv Ab-14: VH joined to VL by a (GGGGS)3 linker. Changes lie in the heavy chain CDRs alone.
VH: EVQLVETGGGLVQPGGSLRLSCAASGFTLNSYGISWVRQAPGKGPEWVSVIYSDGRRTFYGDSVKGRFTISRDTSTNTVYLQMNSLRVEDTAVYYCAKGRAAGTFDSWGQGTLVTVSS
VL: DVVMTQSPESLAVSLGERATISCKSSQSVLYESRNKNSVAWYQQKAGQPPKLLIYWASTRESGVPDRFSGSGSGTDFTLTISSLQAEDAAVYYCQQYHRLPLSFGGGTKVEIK

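The starting antibody came from a phage panning campaign against this peptide. The variants were designed computationally from a first round of random CDR variants and then made and measured. Several design methods are mixed in this list. The scFvs were displayed on barcoded MATa yeast, the peptide on MATalpha yeast. After mating in shaken culture at 30 °C for 16 h, diploids were selected and their barcode pairs sequenced. Scores were corrected for input abundance and mapped to Kd with protein pairs of known affinity run in the same pool. Mating was done six times.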

Variants are written as CDR1, CDR2 and CDR3 of the heavy chain (limits as in the source). Parent: GFTLNSYGIS, VIYSDGRRTFYGDSVK, GRAAGTFDS.
The read-out is the apparent dissociation constant on a log10 scale (nM): the lower, the stronger.
"nd" marks a missing value. The strain was present, yet no cells mated with the target were sequenced in that replicate, which points to weak or no binding.
The parent sequence was in this pool as ten entries: three were never detected, three once, and four in most replicates, with averages from 0.34 to 2.37.
Background: pairings of all heavy chain designs with three empty control strains gave a value in 1% of cases (median 2.08, 5th percentile 0.84). Values in that range, when seen in few replicates, are hard to tell from nonspecific mating.
The authors' rule: three or more of the six replicates give a measured affinity, fewer mean a poor binder.
Values of this round are not directly comparable with the first-round values of the same sequences.

nd, nd, nd, nd, nd, nd: GFDLEEYGIS / VIYADGMRTTAIDKVK / GIAGGSFLV.
nd, 0.04, 0.22, -0.86, -0.55, -0.03: GFDLDEYGIS / VIYADGVRTAYADSVK / GETAGTFDQ.
nd, nd, nd, nd, nd, nd: GFGLNSYRIS / VIYADGRRTFYGDSVK / GRAAGTNKS.
nd, nd, nd, nd, nd, nd: GFSLNEYGIS / VIYSDGRRTFYGDSVK / GRTAGTFKS.
nd, 2.12, 1.39, 1.67, nd, nd: KFQLNEYGIS / VIYSDGRRTFYGDSVK / GRQAGTFDS.
nd, nd, nd, nd, nd, nd: GFTLNSYGIS / VIYSDYRRTFYGDSVK / GTAAGTFDS.
nd, nd, nd, nd, nd, nd: GDNLDEYGIS / VIYADGQRTAYSDPVK / GEWGVTVGK.
nd, nd, nd, nd, nd, nd: GFNLEEYGIS / VIYADGDRMSYDNAVK / GQISGVIDM.
nd, nd, nd, nd, nd, nd: GFTLNSYGIS / VIYSDGRRTFYGDSVK / GRLAGTFDT.
nd, nd, nd, nd, nd, 2.21: MFTLNEYGIS / VIYSDGRRTFYGDSVK / GRTAGTFDT.
-0.20, -0.01, -0.01, -0.10, 0.17, -0.20: GFDLNEYGIS / VIYADGRRTFYADSVK / GEVAGTFVD.
nd, nd, nd, nd, nd, nd: GFDFDEYGIS / VIYADGIRQFYQDKVK / GNVTGMFDT.
2.83, 0.68, 0.54, 0.99, 0.91, 1.54: GFTLNSYGIS / VIYSDGRRTFYGDSVK / GMLAGTFDT.
0.47, 0.98, 0.34, 0.42, 0.14, 1.98: GFQLNSYGIS / VIYSDGRRTFYKDSVK / GRTAGTFDS.
nd, nd, nd, 2.31, nd, nd: GFDLNEYGIS / VIYADGRRTFYVDSVK / GQVAGIFDV.
nd, nd, nd, nd, nd, nd: GFTLMDYGIS / VIYSDGQRTFYGDSVK / GRAAGTYDS.
-0.32, -0.16, -0.24, -0.60, -0.44, -0.13: GFDLNEYGIS / VIYADGVRTAYADSVK / GEVAGTFDV.
-0.34, -0.10, -0.34, -0.47, -0.25, -0.37: GFDLNEYGIS / VIYADGMRTFYTDSVK / GESAGTFDS.
-0.24, -0.29, -0.08, -0.78, -0.24, -0.47: GFDLEEYGIS / VIYADGMRTAYADSVK / GNNAGTFDL.
nd, nd, nd, nd, nd, nd: GFHLNSYGIS / VIYSDGRRTFYVDSVK / GKQAGTFDS.
nd, nd, nd, nd, nd, nd: GFTLNSYGIS / VIYSDGRKTFYGDSVK / GRAAGQFDS.
0.14, -0.06, -0.01, 0.12, 0.06, 0.49: GFDLNEYGIS / VIYADGSRTAYADDVK / GEVAGTFDL.
nd, nd, nd, nd, nd, nd: GFTLTSYGIS / VIYADGRRTFYGDSVK / GRAAGTFKS.
1.37, 0.81, 1.33, 0.96, 0.23, 0.31: GFCLNDYGIS / VIYSDGRRTSYIDSVK / GRAAGTFDS.
0.09, 0.07, -0.02, 0.20, 0.52, 0.06: GFGLNEYGIS / VIYSDGRRTFYHDSVK / GRQAGTFDS.
nd, nd, nd, nd, nd, nd: GFTLNSYGIS / VIYSDGRRTFYGDSVK / GRAAVWFDS.
0.73, 0.97, nd, 1.72, 1.13, 1.51: GGSLDQYGIS / VIYADGVRTSYTNSVK / GVHAGTFMQ.
-0.23, -0.02, -0.18, -0.49, -0.10, 0.21: GFDLDEYGIS / VIYADGRRTAYSDSVK / GNTAGTFDI.
nd, 0.63, 0.14, nd, 1.88, nd: GFELNSYGIS / VIYSDGRRTFYGDSVK / GWVAGTFDL.
nd, 1.77, nd, 1.88, nd, 2.91: GNTLNSYGIS / VIYSDGERTAYGDSVK / GMAAGTFDL.
1.59, 0.76, 0.13, 0.72, 0.59, 0.91: GFTLNSYGIS / VIYSDGHRTFYADSVK / GQLAGTFDS.
-0.24, -0.61, -0.48, -0.74, -0.27, -0.15: GFDLNEYGIS / VIYADGLRTAYADDVK / GNQAGTFDV.
nd, nd, nd, nd, nd, nd: GFTLNDYGIS / VIYSDGRRTFYADSVK / GKAAGTFIS.
nd, 2.25, 2.14, nd, nd, nd: GFSLDEYGIS / VIYADGMRTAYTADVK / GGKSEDVFT.
0.65, 0.99, 0.70, -0.05, 0.30, 1.58: GFNLDEYGIS / VIYADGRRTFYADSVK / GEHAGSFDI.
-0.28, -0.51, -0.53, -0.11, -0.51, -0.15: GFDLNEYGIS / VIYADGRRTAYDDSVK / GQVAGTFDT.
-0.10, 0.01, -0.39, 0.00, 0.44, -0.37: GFNLNEYGIS / VIYADGRRTFYTDDVK / GEVAGTFDV.
-0.11, -0.13, -0.21, -0.12, -0.03, -0.19: GFDLNEYGIS / VIYADGMRTAYTDSVK / GETAGTFDT.
nd, nd, nd, nd, nd, nd: GFTLNSYGIS / VIYSDGRRTFYGDSVK / GRAAGCFDS.
nd, nd, nd, nd, nd, nd: GFELNDYGIS / VIYSDGRRTFYIDTVK / GNAAGTFDS.
-0.04, -0.21, -0.24, -0.34, -0.45, -0.04: GFSLNEYGIS / VIYSDGRRTFYGDAVK / GKTAGTFDS.
0.32, 0.21, -0.12, -0.21, 0.82, 0.84: KFSLNEYGIS / VIYSDGRRTFYADSVK / GRTAGTFDS.
nd, nd, nd, nd, nd, nd: GNTLLSYGIS / VIYSDGMRVFYGDSVK / GQAIGTFDS.
nd, 0.07, 2.23, 0.69, 0.36, 1.76: GFSLNSYGIS / VIYSDGRRTFYGDPVK / GEAAGTFDS.
nd, nd, nd, nd, nd, nd: GFTLNSYGIS / VIYSDGKRTFYGDDVK / GQAAGTFDL.
0.35, -0.39, -0.55, -0.44, -0.20, -0.36: GFDLDEYGIS / VIYADGMRTAYADSVK / GNQAGTFDM.
nd, nd, nd, nd, nd, nd: GFTLNSYGIS / VIYSDGLRTFYGDDVK / RSAAGTFDS.

The first 2 entries again:

| CDR-H1 | CDR-H2 | CDR-H3 | log10 Kd, replicates |
|---|---|---|---|
| GFDLEEYGIS | VIYADGMRTTAIDKVK | GIAGGSFLV | nd, nd, nd, nd, nd, nd |
| GFDLDEYGIS | VIYADGVRTAYADSVK | GETAGTFDQ | nd, 0.04, 0.22, -0.86, -0.55, -0.03 |

Source: Li et al. 2023 (doi:10.1038/s41467-023-39022-2), MIT Lincoln Laboratory and A-Alpha Bio; data file from the FLAb repository.